Screening results: PubChem, National Center for Advancing Translational Sciences (NCATS)
The list is not random: actives were taken first. Their share in the collection is about 2.2%.
miR-21 reporter: miR-21 reporter, rising signal; HeLa miR-21 FLuc reporter, luciferase, 48 h; Potency, µM (highest dose often 38.3 µM); 340,000 tested, under 10 active; AID 2288; active = well fitted rising curve with a large enough effect; inconclusive = small, poorly fitted or top-dose-only effect; inactive = no such curve, though single readings can be large or run the other way;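 further: miR-21 action dims this reporter so a rising signal means less miR-21 action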
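Luminescence from a firefly luciferase reporter carrying a miR-21 binding site downstream, stably expressed under a CMV promoter in HeLa cells that make miR-21 endogenously, reports miRNA modulation after 48 h compound exposure up to approximately 40uM final.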
Nrf2 ARE act: activators of Nrf2 (ARE) signaling. AREc32 ARE-luciferase reporter (MCF7-derived line), luminescence, 24 h. Potency, µM (series often up to 46.1 µM), most hits filed as activators. 410,000 compounds, 0.31% hits. AID 624171; note: nearly all actives have a fitted effect of over 65% in size
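Cells of the AREc32 ARE-luciferase line are plated in OPTI-MEM containing 5% FBS and left overnight at 37 deg C. Compounds are pinned in, incubation continues 24 hr, and firefly luciferase signal is then measured.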
Nrf2 inh: inhibitors of Nrf2 signaling; 360,000 compounds, 2.1% hits; AID 504444; A549 ARE-Fluc reporter, luciferase luminescence, 18-24 h; Potency, µM (top dose mostly 46 µM), usual class: inhibitors; note: nearly all actives have a fitted effect of over 60% in size
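Nrf2 function is reported as luminescence of an ARE-controlled luciferase in A549 cells. Compounds were tested at several concentrations, and a CellTiter-Fluor read on the same wells flagged cytotoxicity.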
B2AR arrestin: recruits beta-arrestin to the human beta2-adrenergic receptor; beta-arrestin recruitment to beta2AR, cell-based reporter; Potency, µM (top dose mostly 46.1 µM), hits mostly activators; 330,000 compounds, 0.02% hits; AID 492947; P07550; note: nearly all actives have a fitted effect of over 65% in size
A549 tox: A549 cytotoxicity, counter-screen for Nrf2 inhibitors. A549 ARE-Fluc cells, CellTiter-Fluor viability, 18-24 h. Potency, µM (highest dose often 46 µM), actives largely listed as inhibitors. 390,000 compounds, 0.16% hits. AID 504648
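Cytotoxicity counterscreen: CellTiter-Fluor fluorescence was measured in A549 ARE_Fluc cells after 18-24 h of compound exposure in a concentration series. The subsequent BugLite luminescent read reports ARE-luciferase activity.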
A number is an active result; n = inactive; u = inconclusive; x = no result; [ ] = remark or other dose. Unless noted, calls come from the whole dose curve; as a rule, active = well fitted curve in the direction sought with a large enough effect; inconclusive = small, poorly fitted or top-dose-only effect, or another doubt; inactive = no such curve, though single readings can be large; an effect the other way counts as inactive or inconclusive.

SMILES	miR-21 reporter	Nrf2 ARE act	Nrf2 inh	B2AR arrestin	A549 tox
CC1CCCCC1NC(=O)CN1C(=O)NC(Cc2ccccc2)(Cc2ccccc2)C1=O (stereo unspecified)	n	n	u	n	n
CC(NC(=O)CN1C(=O)NC(Cc2ccccc2)(Cc2ccccc2)C1=O)C12CC3CC(CC(C3)C1)C2 (stereo unspecified)	n	n	25.9µM	n	u
O=C(Nc1ccc(F)cc1)c1ccc(CN2CCc3ccccc3C2)cc1	n	n	5.8µM	n	n
O=C(Nc1cccc(Br)c1)c1ccc(CN2CCc3ccccc3C2)cc1	n	n	8.2µM	n	n
CSc1cccc(NC(=O)c2ccc(CN3CCc4ccccc4C3)cc2)c1	n	n	u	n	n
Cc1cc(C)cc(NC(=O)C2CCN(c3nc4ccccc4nc3C(F)(F)F)CC2)c1	n	n	u	x	n
S=C(NCCN1CCOCC1)N1CCN(c2cccc(Cl)c2)CC1	n	n	u	n	n
S=C(NCc1ccco1)N1CCN(c2cccc(Cl)c2)CC1	n	n	14.6µM	n	n
Cn1cc(S(=O)(=O)N2CCCCCC2)cc1C(=O)N1CCN(c2cccc(C(F)(F)F)c2)CC1	n	n	x	x	n
CCCCCn1c(=O)[nH]c2cc(C(=O)NCc3ccc4c(c3)OCO4)ccc2c1=O	n	n	n	n	n
CCCCCn1c(=O)[nH]c2cc(C(=O)N3CCN(Cc4ccc5c(c4)OCO5)CC3)ccc2c1=O	n	n	0.82µM	n	u
CCn1cc(C(=O)OCC(=O)OC2CC(C)CCC2C(C)C)c(=O)c2ccc(C)nc21 (stereo unspecified)	n	n	20.6µM	n	u
CSc1ccc(C(=O)C2CCCN(S(=O)(=O)c3c(C)noc3C)C2)cc1 (stereo unspecified)	n	n	13µM	n	n
CCC(=O)NC(c1ccco1)c1cc(Cl)c2c(c1O)NCCC2 (stereo unspecified)	x	x	n	x	n
COc1ccc(-c2cn3ccccc3n2)cc1OC	n	11.2µM	u	n	n
COc1ccc(-c2cn3cc(C)ccc3n2)cc1OC	n	n	u	n	n
O=C1CCCC2=C1C1(CCC1)N=C(Nc1nc3ccccc3o1)N2	x	x	n	x	n
O=C(CSc1ccc(Cl)cc1)N1CCN(c2ncc(C(F)(F)F)cc2Cl)CC1	n	n	20.6µM	n	n
O=C(CSc1ncc(C(F)(F)F)cc1Cl)N1CCN(S(=O)(=O)c2ccc(Cl)cc2)CC1	n	n	u	n	n
O=c1nc(N/N=C/c2c[nH]c3ccccc23)cn[nH]1	n	n	u	n	n
O=c1cnnc(N/N=C/c2c[nH]c3ccccc23)[nH]1	n	12.6µM	u	n	n
COc1cccc(NC(=O)NCCCSC2CCCCC2)c1	n	n	n	n	n
Cc1cc(C)c(NC(=S)NCCCSC2CCCCC2)c(C)c1	n	n	20.6µM	n	n
Cc1ccc(NC(=O)c2ccccc2)cc1	n	n	u	n	n
Cc1ccc(NC(=O)C2=C(c3ccccc3)S(=O)(=O)CCS2(=O)=O)cc1	u	n	20.6µM	n	u
SMILES	miR-21 reporter	Nrf2 ARE act	Nrf2 inh	B2AR arrestin	A549 tox
O=C(NN/C(=N/S(=O)(=O)c1ccc(Cl)cc1)c1ccccc1)c1cccc(Cl)c1	n	4.47µM	u	n	n
CCn1cc(C(=O)NCc2ccc(C)cc2)c(=O)c2cc(S(=O)(=O)N3CCCCCC3)ccc21	n	n	x	x	n
N=c1ccn2c(n1)OC1C(O)C(CO)OC12 (stereo unspecified)	n	n	0.184µM	n	n
CCCn1c(/C=N/Nc2nc3ccccc3[nH]2)nc2ccccc21	n	n[9.22 µM]	14.6µM	n	u
Cn1c(/C=N/Nc2nc3ccccc3[nH]2)nc2ccccc21	n	n	u	n	n
CC(C)Cn1c(/C=N/Nc2nc3ccccc3[nH]2)nc2ccccc21	n	n	7.31µM	n	n
Cc1c(/C=N/Nc2nc3ccccc3[nH]2)c2ccccc2n1C	u	n	u	n	n
O=C1C2C3CCCC3=C3CCCC3C2C(=O)N1c1ccccc1Cl (stereo unspecified)	x	x	n	x	n
O=C1CC(c2ccccc2)Cc2[nH]c(=O)c(-c3nc(-c4ccc(F)cc4)cs3)cc21 (stereo unspecified)	n	n	n	x	n
O=C(O)CC1c2ccccc2CCN1C(=O)Nc1cc(Cl)ccc1Cl (stereo unspecified)	n	n	x	x	n
C=C(C)c1cc2c(s1)c1cnn(Cc3ccccc3F)c(=O)c1n2C	x	x	u	x	n
Cc1ccccc1CN1C(=O)c2ccccc2S(=O)c2ccc(C(=O)NCc3ccco3)cc21 (stereo unspecified)	n	n	n	x	n
Cc1cccc(CSc2nc(=O)c3c(n2C)NC(=O)CC3c2cc(F)cc(F)c2)c1 (stereo unspecified)	n	n	n	x	n
NS(=O)(=O)c1ccc(CCNC(=O)Nc2ccc(Cl)c(Cl)c2)cc1	n	n	20.6µM	n	n
O=C(CCl)N(c1ccc(Cl)cc1)c1c[nH]c2ccccc12	u	n	20.6µM	n	u
COc1ccc2oc3cc(C)[n+]([O-])c(-c4ccc(C)cc4)c3c2c1	n	n	25.9µM	n	u
Cc1ccc2oc(=O)c(/C=C(\O)C(C)(C)C)nc2c1	n	u	n	n	n
CC(C)(C)/C(O)=C/c1nc2cc(Cl)ccc2oc1=O	n	10µM	n	n	n
CC[C@]12c3[nH]c4ccccc4c3CCN1C(=O)C(CC(=O)NC/C=C(\C)CCC=C(C)C)C[C@@H]2C(=O)N1CCN(C(=O)c2ccco2)CC1 (stereo partly specified)	x	n	23.1µM	n	n
CC(C)N(C(=O)[C@H]1C[C@H](CC(=O)NCCC2=CCCCC2)C(=O)N2CCc3c([nH]c4ccc(Cl)cc34)[C@]12C)C(C)C	x	n	20.6µM	n	u
CCN(CC)C(=O)[C@H]1CC(CC(=O)NCC23CC4CC(CC(C4)C2)C3)C(=O)N2CCc3c([nH]c4ccc(OC)cc34)[C@]12C (stereo partly specified)	x	n	23.1µM	n	n
CN(C)C(=O)CCc1ccc2c3c([nH]c2c1)[C@]1(C)[C@@H](C(=O)N2CCOCC2)C[C@H](CC(=O)NCC24CC5CC(CC(C5)C2)C4)C(=O)N1CC3	x	n	n	n	n
CC(C)N(C(=O)[C@H]1C[C@H](CC(=O)NCC23CC4CC(CC(C4)C2)C3)C(=O)N2CCc3c([nH]c4cc(CCC(=O)N(C)C)ccc34)[C@]12C)C(C)C	x	n	20.6µM	n	u
CC[C@]12c3[nH]c4cc(-c5ccco5)ccc4c3CCN1C(=O)[C@@H](CC(=O)NC/C=C(\C)CCC=C(C)C)C[C@@H]2C(=O)N1CCN(C(=O)c2ccco2)CC1	x	n	u	n	n
Cc1cc2c(s1)c1cnn(Cc3ccc(Cl)c(Cl)c3)c(=O)c1n2C	x	x	n	x	n
CCn1ccc2cc(S(=O)(=O)N3CCCN(C(=O)Nc4ccccc4F)CC3)ccc21	n	n	x	x	n
